B1: Alpha-1-antitrypsin, P01009 (parent)
chain: MPSSVSWGILLLAGLCCLVPVSLAEDPQGDAAQKTDTSHHDQDHPTFNKITPNLAEFAFSLYRQLAHQSNSTNIFFSPVSIATAFAMLSLGTKADTHDEILEGLNFNLTEIPEAQIHEGFQELLRTLNQPDSQLQLTTGNGLFLSEGLKLVDKFLEDVKKLYHSEAFTVNFGDTEEAKKQINDYVEKGTQGKIVDLVKELDRDTVFALVNYIFFKGKWERPFEVKDTEEEDFHVDQVTTVKVPMMKRLGMFNIQHCKKLSSWVLLMKYLGNATAIFFLPDEGKLQHLENELTHDIITKFLENEDRRSASLHLPKLSITGTYDLKSVLGQLGITKVFSNGADLSGVTEEAPLKLSKAVHKAVLTIDEKGTEAAGAMFLEAIPMSIPPEVKFNKPFVFLMIEQNTKSPLFMGKVVNPTQK

Values joined by “and” are separate entries in the source; they are usually repeats but may differ in a detail not shown here. Equal values may be shown once.

In this series the parent is B1. The note with it: Homo sapiens, pH 7.8, Tris 50 mM, NaCl 50 mM, reversible: yes, structure 1QLP, whole UniProt chain shown; for denaturant m value / denaturant midpoint (higher = more stable) / unfolding free energy: 25 °C, transition: 3; for Tm / change of melting temperature, mutant - wild type (higher = more stable): Thermal.

Usually Tm stands for the temperature at which the thermal transition is half complete.

Turning to MPSSVSWGILLLAGLCCLVPVSLAEDPQGDAAQKTDTSHHDQDHPTFNKITPNLAEFAFSLYRQLAHQSNSTNIFFSPVSIATAFAMLSLGTKADTHDEILEGLNFNLTEIPEAQIHEGFQELLRTLNQPDSQLQLTTGNGLFLSEGLKLVDKFLEDVKKLYHSEAFTVNFGDTEEAKKQINDYVEKGTQGKIVDLVKELDRDTVFALVNYIFFKGKFERPFEVKDTEEEDFHVDQVTTVKVPMMKRLGMFNIQHCKKLSSWVLLMKYLGNATAIFFLPDEGKLQHLENELTHDIITKFLENEDRRSASLHLPKLSITGTYDLKSVLGQLGITKVFSNGADLSGVTEEAPLKLSKAVHKAVLTIDEKGTEAAGAMFLEAIPMSIPPEVKFNKPFVFLMIEQNTKSPLFMGKVVNPTQK [W218F], where the note is “GdnSCN, Fluorescence”, the denaturant m value was 1.9 kcal/mol/M, the “denaturant midpoint (higher = more stable)” value (“denaturant midpoint” below) was found to be 0.8 M and the unfolding free energy was 1.6 kcal/mol. Further, where the note is “Urea, CD”, the denaturant m value is 1.32 kcal/mol/M and 1.01 kcal/mol/M; the “denaturant midpoint” value was 2.95 M and 6.01 M; the unfolding free energy is 3.9 kcal/mol and 6.1 kcal/mol. For the same variant, under “Urea, Fluorescence”, the denaturant m value turned out to be 1.5 kcal/mol/M, the “denaturant midpoint” value came to 2.6 M and the unfolding free energy is 4 kcal/mol. For the same variant, for the setting “CD”, the Tm turned out to be 59.1 °C and the “change of melting temperature, mutant - wild type (higher = more stable)” value was -0.5 °C.
Take MPSSVSWGILLLAGLCCLVPVSLAEDPQGDAAQKTDTSHHDQDHPTFNKITPNLAEFAFSLYRQLAHQSNSTNIFFSPVSIATAFAMLSLGTKADTHDEILEGLNFNLTEIPEAQIHEGFQELLRTLNQPDSQLQLTTGNGLFLSEGLKLVDKFLEDVKKLYHSEAFTVNFGDTEEAKKQINDYVEKGTQGKIVDLVKELDRDTVFALVNYIFFKGKWERPFEVKDTEEEDFHVDQVTTVKVPMMKRLGMFNIQHCKKLSSFVLLMKYLGNATAIFFLPDEGKLQHLENELTHDIITKFLENEDRRSASLHLPKLSITGTYDLKSVLGQLGITKVFSNGADLSGVTEEAPLKLSKAVHKAVLTIDEKGTEAAGAMFLEAIPMSIPPEVKFNKPFVFLMIEQNTKSPLFMGKVVNPTQK [W262F]: where the note is “GdnSCN, Fluorescence”, the denaturant m value stood at 1.5 kcal/mol/M, the “denaturant midpoint” value is 1.8 M and the unfolding free energy amounted to 2.8 kcal/mol. In addition, where the note is “Urea, CD”, the denaturant m value was 1.2 kcal/mol/M, the “denaturant midpoint” value came to 5.8 M and the unfolding free energy was determined as 6.95 kcal/mol. For the setting “Urea, Fluorescence”, the denaturant m value came to 0.65 kcal/mol/M, the “denaturant midpoint” value is 5.3 M and the unfolding free energy amounted to 3.44 kcal/mol. Further, for the setting “CD”, the Tm amounted to 57.9 °C and the “change of melting temperature, mutant - wild type (higher = more stable)” value is -1.7 °C.

The values are drawn from FireProtDB (doi:10.1006/jmbi.2001.5104).
